We go through one compound from patent US9174988B2, “Small molecule inhibitors of hepatitis C virus” (TRUSTEES OF BOSTON UNIVERSITY, priority 2009, dated 2015).

Bounds are passed on as bounds.

The CC50 is the concentration at which the toxic effect on the cells reaches its halfway point.

In this data set the test system is Huh-7.5 cells. The experiment in a line: XTT cytotoxicity assay (CC50). From the text: This assay utilized the compound XTT (2,3-bis[2-methoxy-4-nitro-5-sulfophenyl]-2H-tetrazolium-5-carboxyanilide inner salt) with addition of an electron coupling agent phenazine methosulfate (PMS) to measure mitochondrial dehydrogenases activity in living cells, e.g., Huh-7.5 cells. Dehydrogenases in mitochondria of living cells cleave the tetrazolium ring of XTT changing the color of the solution from clear to orange. As designed, compounds that reduce cell viability will reduce activity of the mitochondrial dehydrogenases, and leave a decreased orange color in solution.
The Huh-7.5 cell line was routinely cultured in 15-cm dishes at 37 degrees C. and 95% relative humidity (RH). […]
Prior to the start of the assay 8000 cells in 100 microliter volume of colorless growth media were dispensed into each well of 96-well tissue culture-treated microtiter plates and incubated overnight at 37 degrees C. […] After equilibrating the plates to room temperature for 10 minutes, optical density at 450 nm and […] was measured on Biotek plate reader.
The percent inhibition for each compound was calculated as follows: % Inhibition=((DMSO Control−Test compound)/DMSO Control)*100, wherein Test compound is defined as wells containing test compound. […]
For orientation: Tetrazolium dyes change colour on reduction, which living cells bring about.

As to `COC(=O)C1=C(C(=O)OC)C2N(CCOCCN3c4ccccc4[C@]45CCC(=O)N(Cc6ccccc6)C4=NC(C(=O)OC)=C(C(=O)OC)C35)c3ccccc3[C@@]23CCC(=O)N(Cc2ccccc2)C3=N1` (some centres unmarked), the CC50 (Table 3) was more than 100 µM and the CC50 (hepatoma Huh7-5 cells) was less than 100 µM.
